We go through 3 molecules from patent US9181253B2 (The United States of America, as represented by the …, priority 2008, dated 2015).

By UniProt entry, the sequences of proteins in these tests, tags left out.
UniProt P0DMS8, whole entry: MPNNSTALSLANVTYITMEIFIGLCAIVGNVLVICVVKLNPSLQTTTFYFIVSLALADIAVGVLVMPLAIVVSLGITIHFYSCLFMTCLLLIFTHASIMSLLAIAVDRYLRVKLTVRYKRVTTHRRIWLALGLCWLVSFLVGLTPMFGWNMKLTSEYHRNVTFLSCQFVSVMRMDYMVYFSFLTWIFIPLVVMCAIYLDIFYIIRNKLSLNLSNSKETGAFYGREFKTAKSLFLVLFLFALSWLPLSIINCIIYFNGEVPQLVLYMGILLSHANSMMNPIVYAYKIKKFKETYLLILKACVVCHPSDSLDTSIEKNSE
UniProt P30542, whole entry: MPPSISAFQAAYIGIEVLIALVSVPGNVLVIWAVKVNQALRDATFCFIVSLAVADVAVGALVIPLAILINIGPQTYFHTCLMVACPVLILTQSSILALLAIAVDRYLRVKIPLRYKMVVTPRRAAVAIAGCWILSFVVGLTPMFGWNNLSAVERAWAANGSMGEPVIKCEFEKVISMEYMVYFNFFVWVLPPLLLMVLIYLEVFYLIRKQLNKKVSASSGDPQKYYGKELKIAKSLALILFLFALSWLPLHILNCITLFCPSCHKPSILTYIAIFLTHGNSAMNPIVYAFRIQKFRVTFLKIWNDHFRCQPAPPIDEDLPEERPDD

One experiment deals with human A3 receptor (Homo sapiens (Human), UniProt P0DMS8). In words: Binding assay at the human A3 receptor (Example 2). The note with it: CHO cells expressing human A3AR; radioligand [125I]I-AB-MECA; n = 3-5; read-out: Affinity (Ki, nM) A3.
A further experiment has as its target hA1AR (Homo sapiens (Human), UniProt P30542). Nature of the experiment: A1AR functional assay, inhibition of forskolin-stimulated cyclic AMP production in AR-transfected CHO cells. It is filed as cell-based.

Consider `O[C@@H]1[C@H](O)[C@@H]2C[C@@H]2[C@H]1n1cnc2c(NCc3cccc(Cl)c3)nc(Cl)nc21` [Compound 8b, (1′R,2′R,3′S,4′R,5′S)-4′-[2-Chloro-6-(3-chlorobenzylamino)purine]-2′,3′-O-dihydroxybicyclo-[3.1.0]hexane], for which the Ki at human A3 receptor turned out to be 1.06 ± 0.36 nM.

Take `CC(Nc1nc(Cl)nc2c1ncn2[C@H]1[C@H](O)[C@H](O)[C@@H]2C[C@@H]21)C1CC1` (stereo partly drawn) [Compound 120, (1R,2R,3S,4R,5S)-4-(2-Chloro-6-(1-cyclopropylethylamino)-9H-purin-9-yl)bicyclo[3.1.0]hexane-2,3-diol]: the inhibition at 10 µM on hA1AR (CHO, read-out: % Inhibition, cyclic AMP A1) was 45.5 ± 4.8%.

Consider `CCNC(=O)[C@H]1O[C@@H](n2cnc3c(N)ncnc32)[C@H](O)[C@@H]1O` [Compound 236, 5′-N-ethylcarboxamidoadenosine, reference compound], for which, at hA1AR (maximal efficacy at 10 μM, in comparison to effect (100%) of full agonist CPA at 10 μM, n = 3-5), the “% Inhibition, cyclic AMP A1” value is 100 ± 15%.
